# Reference: patent US4374245A, “8-[3-(6-Fluoro-1,2-benzisoxazol-3-yl)propyl]- 1-phenyl-1,3,8-triazaspiro[4.5]decan-4-one” (Hoechst-Roussel Pharmaceuticals Inc., priority 1982, dated 1983)
# Test system: phenyl-para-quinone induced writhes
# Assay: phenyl-para-quinone writhing assay in mice (analgesia)
# Format: in vivo
# Settings: estimated subcutaneous dose at which phenyl-para-quinone induced writhes are reduced by 50% in mice
compound,measurement,value
Cl.O=C1NCN(c2ccccc2)C12CCN(CCCc1noc3cc(F)ccc13)CC2,Analgesic Activity (ED50),5.7 mg/kg
